From patent US20230295159A1, “ATX INHIBITOR, AND PREPARATION METHOD THEREFOR AND USE THEREOF” (SUZHOU ARK BIOPHARMACEUTICAL CO., LTD., priority 2020, published 2023)

Tested on: Chinese hamster ovary cells (CHO-WBL)
Experimental: In the major micronucleus assay, CHO-WBL cells were exposed to at least 3 concentrations of the test object, while vehicle control group and positive control group were set up, with 2 replicated wells for each dose group. In inactivated test system, the administration lasted for 3 and 24 hours, and in S9 activated test system, the exposure to the test object lasted for 3 hours.
When choosing the highest dose for micronucleus frequency assay, the cytotoxicity of dose group of the test object should not substantially exceed 50% of that of the corresponding vehicle control group.
On the premise that the test is valid, the test results are evaluated according to the following criteria:
If the test object simutaneously meets the following criteria, it can be considered as positive:
A significant increase in micronucleus frequency is observed in one or more concentration groups.
If none of the above three points is met, the test object can be considered as negative.

Mitomycin C
% binuclear cells containing micronucleus: 19.5%
